Tested on: SARS-CoV-2
Type: cell-based
Conditions: SARS-CoV-2, Vero E6 ACE2 cells

## O=C(Cn1nnc2ccccc21)N(Cc1cccc(Cl)c1)c1ccc(-c2c[nH]cn2)cc1 [Compound 41, N-(4-(1H-Imidazol-4-yl)phenyl)-2-(1H-benzo[d][1,2,3]triazol-1-yl)-N-(3-chlorobenzyl)acetamide]
  antiviral efficacy compared with remdesivir: comparable to that of the polymerase inhibitor, remdesivir

Reference: US20240239772A1, “PROTEASE INHIBITORS AND METHODS OF USE” (The Cleveland Clinic Foundation, priority 2021, published 2024)
